## Binding of CDR-mutated scFvs to a peptide of the spike HR2 region

Antigen: PDVDLGDISGINAS, a 14-residue peptide of the SARS-CoV-2 spike HR2 region.

Parent scFv Ab-14: VH joined to VL by the linker GGGGSGGGGSGGGGS. Changes lie in the light chain CDRs alone.
VH: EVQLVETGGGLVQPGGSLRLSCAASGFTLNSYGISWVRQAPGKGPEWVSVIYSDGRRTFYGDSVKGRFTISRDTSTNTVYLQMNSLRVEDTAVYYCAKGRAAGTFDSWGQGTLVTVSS
VL: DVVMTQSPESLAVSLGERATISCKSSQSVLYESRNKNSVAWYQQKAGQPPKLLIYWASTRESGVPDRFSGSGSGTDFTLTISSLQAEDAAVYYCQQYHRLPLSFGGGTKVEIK

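The parent was found by panning a naive human phage display library on the peptide. The variants were designed computationally from a first round of random CDR variants and then made and measured. Their group label is 14L_En_Gibbs (En: ensemble of fine-tuned language models; Gibbs: Gibbs sampling). Affinity was read by AlphaSeq, a pooled yeast mating assay with surface-displayed partners. Mating (16 h, 30 °C) was followed by selection of diploids and sequencing of their barcodes. A regression on co-assayed BCL2-family reference pairs converts the normalised counts of each replicate to an apparent Kd. The assay was run in six technical replicates.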

Each variant is given by its three light chain CDRs, as the data file delimits them; those of the parent are KSSQSVLYESRNKNSVA, WASTRES, QQYHRLPLS.
Numbers give log10(Kd / nM), so 0 is 1 nM and 3 is 1 µM. Smaller is tighter.
"n.d." marks a missing value. The strain was present, yet no cells mated with the target were sequenced in that replicate, which points to weak or no binding.
In the paper, a design with two or fewer of six values counts as a poor binder.
Empty control strains, which show no peptide, gave a signal in 4% of pairings with all light chain designs; the median was 2.64 and 95% of these signals were weaker than 1.59. No background was subtracted. Also given: how often the same scFv was detected with the empty control strains, with their mean in brackets.
The range of this assay differs from that of the first round, and the authors advise against merging the two.
The parent sequence was in this pool as ten entries: three were never detected, three once, and four in most replicates, with averages from 0.34 to 2.37.

CDR-L1,CDR-L2,CDR-L3,"replicates, log10 nM",signal with controls
KIQDNLGELLSQINSVA,STEEKSD,QSYMRLPLS,n.d. / 2.36 / 2.06 / n.d. / 2.83 / n.d.,1 of 18 (2.57)
HLSINMPQQHYMYDSIA,HSDRREV,QQYYRLPLA,0.87 / 0.67 / 0.55 / 1.04 / 0.49 / 0.65,1 of 18 (2.06)
SFHEINMEGLATNANVA,NASQLFE,QSYFRLPLQ,0.54 / 0.62 / 0.65 / 0.67 / 0.59 / 0.58,1 of 18 (3.32)
HIQDDAGGLSEQFDSVA,STEERSY,QQYSRLPLS,n.d. / n.d. / n.d. / n.d. / 3.25 / n.d.,0 of 18
SVRHYFQGENGMRGSVA,NATIRDQ,QQYFRLPLF,0.47 / -0.04 / -0.32 / -0.16 / -0.03 / 0.10,0 of 18
RIDPYEAMAGKNKESIA,EAAVTLT,QQYARLPLS,0.75 / 0.83 / 0.69 / 0.17 / 0.30 / 0.63,0 of 18
QVQAFNEHLKDQTQAMA,NATMRDQ,QQYERLPLS,0.67 / 0.42 / 0.66 / 0.49 / 0.09 / 0.56,0 of 18
KVSDPMVEWYANQSAVA,DHADAQH,QQYDRLPLS,n.d. / n.d. / n.d. / n.d. / n.d. / n.d.,0 of 18
SLHLYTLTEKNNNNSIA,EKSYRAY,QQYSHLPLV,2.77 / 1.75 / 1.61 / 2.03 / 1.56 / 2.05,1 of 18 (2.83)
SMHPFDVAIGKGTQNVA,HVSVRAS,QQYDRLPLV,1.20 / 1.46 / 1.10 / 1.29 / 1.38 / 1.13,1 of 18 (1.69)
NLVEDEGTNQAKMGNIA,SVDQRMD,QQYQRLPLI,0.27 / 0.64 / 0.18 / 0.31 / 0.27 / 0.46,0 of 18
DLTGMFNLAGQQQHSIA,NGGIKIE,QQYNRLPLA,0.94 / 1.16 / 0.99 / 0.63 / 1.14 / 0.94,0 of 18
VFPEHELMLESEIRSIA,NATKRME,QQYFRLPLV,0.35 / 0.02 / 0.03 / 0.32 / 0.59 / 0.85,1 of 18 (4.12)
NMGGTKEMQSNEINNIA,EMNERFA,QQYFQLPLS,0.74 / 0.60 / 0.55 / 0.99 / 0.70 / 0.63,0 of 18
KLYYHEVGLVNGQNSIA,EQDQLTF,QQYSHLPLS,n.d. / n.d. / 1.51 / n.d. / n.d. / 2.00,1 of 18 (2.78)
VLSDTIENQYDEADNIA,DKTETSK,QQYARLPLS,1.70 / 1.68 / 0.90 / 1.06 / 1.11 / 2.52,0 of 18
RITYKAEQLERHNSSVA,NGSARCF,QQYFMLPLS,1.46 / 1.69 / 1.52 / 1.86 / 1.24 / 1.53,0 of 18
KLKQDPVLKTNIGNNVA,EHTEVFQ,QQYAHLPLQ,2.54 / 2.63 / n.d. / 2.27 / 2.54 / 3.21,1 of 18 (2.37)
MLSLNLHDMDANMNNVA,EMNQLTA,QDYHRLPLH,0.58 / 0.67 / 0.56 / 0.38 / 0.30 / 0.85,0 of 18
KLDYQADQYGVQWNNVA,HADIRAP,QQYFKLPLN,1.30 / 1.14 / 1.08 / 1.00 / 0.74 / 0.91,0 of 18
KLWAYLQGLERNMQNIA,DGIYRVT,QQYDRLPLS,1.45 / 1.53 / 1.51 / 1.34 / 0.77 / 1.38,1 of 18 (2.59)
RIFYNEEEDLRHKSSIA,NGSARVF,QQYYMLPLS,0.75 / 0.62 / 0.51 / 0.66 / 0.49 / 0.69,5 of 18 (3.35)
TLVGNIQGGMWAKKNVA,DESTRVN,QQYYRLPLS,-0.44 / n.d. / -0.07 / 0.11 / 0.97 / n.d.,0 of 18
QISMNLEIYDQEQWAVA,MGEMRTE,QQYHKLPLS,1.75 / 1.28 / n.d. / 2.70 / 2.70 / 2.32,0 of 18
MFDQHTMNEMDKNNAVA,EVTHLVN,QQYAQLPLI,1.40 / 1.05 / 1.21 / 0.87 / 0.88 / 1.09,1 of 18 (3.05)
LLKGMVEGQLYRQNAIA,NAEERDR,QQYNHLPLS,0.43 / 0.26 / 0.24 / 0.25 / 0.47 / 0.55,2 of 18 (2.57)
RFDMAMPYAHSNINSIA,EKAIQAD,QQYDRLPLS,1.25 / 1.22 / 0.54 / 0.82 / 0.70 / 1.08,1 of 18 (3.56)
QLNHYKHETMAKWQNIA,DMTIREK,QQYAHLPLA,0.33 / 0.32 / 0.21 / 0.35 / 0.02 / 0.23,1 of 18 (3.33)
SMIPFDNQIGKGTNNIA,HVSVRAS,QQYARLPLV,1.02 / 0.46 / 0.33 / 0.51 / 0.65 / 0.68,0 of 18
SLTSHEEEKEGAEASVA,NAVMLES,QQYHRLPLM,0.89 / 1.14 / 1.20 / 0.61 / 0.62 / 1.77,0 of 18
VFQQQWDGHTDTNNSVA,NVDERME,QQYYRLPLL,n.d. / 0.89 / 1.98 / 1.02 / 0.29 / 0.62,0 of 18
TLDLWTSYGNGENKAIA,DVSIKDY,QQYARLPLL,0.28 / 0.51 / 0.56 / 0.52 / 0.56 / 0.86,1 of 18 (2.29)
NLSIQHQHQNMSANAVA,QTEIREV,QQYAQLPLA,1.05 / 1.22 / 1.22 / 0.94 / 1.40 / 0.74,0 of 18
HFQHLGFGDFAWANNIA,ERSQVCE,QQYFRLPLG,0.99 / 1.07 / 1.25 / 0.86 / 0.64 / 0.89,0 of 18
KLMNSLDAFHQWEDNIA,ETEIKVA,QQYYHLPLT,1.24 / 1.66 / 1.47 / 1.31 / 1.55 / 2.89,0 of 18
TLLYGVTEAAKHGKAIA,GNEERAQ,QQYFRLPLS,0.46 / 0.13 / 0.09 / 0.07 / 0.58 / 0.58,0 of 18
HIQGYFNMPENANNSIA,EKHYRVR,QQYYRLPLA,1.37 / 0.58 / 1.17 / 0.75 / 0.95 / 1.06,2 of 18 (2.67)
HINDMLLGQEKIAHSIA,NTGVTSR,QQYQRLPLI,0.75 / 0.80 / 0.77 / 0.72 / 0.57 / 0.83,3 of 18 (3.05)
KLDLENGHEDKKGQNIA,EASTAGD,QSYWRLPLS,n.d. / 1.22 / 1.97 / 1.56 / 1.48 / n.d.,0 of 18
KLMSHEQHGTARNSAMA,NAQVSTQ,QQYSHLPLS,1.12 / 1.63 / 2.90 / 1.95 / 0.96 / 1.65,0 of 18
NVSIEPYEGTRYWEAVA,DHSQRNN,QQYDQLPLS,2.80 / n.d. / n.d. / n.d. / 3.01 / 2.15,0 of 18
NLSDGDMYHNNTRSAVA,NTTMRDF,QQYNRLPLD,n.d. / n.d. / n.d. / n.d. / n.d. / n.d.,0 of 18
KMQTLTYTANIGENSVA,DANVHVD,QQYFRLPLS,0.54 / 0.65 / 0.70 / 0.56 / 0.60 / 0.80,2 of 18 (2.91)
MMTTGLLGENKNSSNIA,SQNIKTA,QQYQRLPLT,1.55 / 0.71 / 0.55 / 1.58 / 0.78 / 0.55,0 of 18

Repeated from above, the 3 best binders with a signal in all replicates:

CDR-L1,CDR-L2,CDR-L3,"replicates, log10 nM",signal with controls
SVRHYFQGENGMRGSVA,NATIRDQ,QQYFRLPLF,0.47 / -0.04 / -0.32 / -0.16 / -0.03 / 0.10,0 of 18
QLNHYKHETMAKWQNIA,DMTIREK,QQYAHLPLA,0.33 / 0.32 / 0.21 / 0.35 / 0.02 / 0.23,1 of 18 (3.33)
TLLYGVTEAAKHGKAIA,GNEERAQ,QQYFRLPLS,0.46 / 0.13 / 0.09 / 0.07 / 0.58 / 0.58,0 of 18

Values reported by Li et al. 2023, doi:10.1038/s41467-023-39022-2 (FLAb copy).